Antibody variant affinities, Ab-14 heavy chain, assay 1

All variants were tested on one target, the spike HR2 peptide PDVDLGDISGINAS (SARS-CoV-2).

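The starting antibody came from a phage panning campaign against this peptide. Library AAYL49 holds single substitutions and randomly drawn double and triple substitutions in the CDRs. The scFvs were displayed on barcoded MATa yeast, the peptide on MATalpha yeast. Mating (16 h, 30 °C) was followed by selection of diploids and sequencing of their barcodes. Scores were corrected for input abundance and mapped to Kd with protein pairs of known affinity run in the same pool. Mating was done three times.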

Ab-14 is the parent antibody, in scFv form: VH, then a (GGGGS)3 linker, then VL. The light chain is unchanged in all variants.
VH: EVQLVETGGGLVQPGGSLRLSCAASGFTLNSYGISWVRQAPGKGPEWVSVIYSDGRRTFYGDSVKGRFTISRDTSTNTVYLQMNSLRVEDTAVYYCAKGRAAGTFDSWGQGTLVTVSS
VL: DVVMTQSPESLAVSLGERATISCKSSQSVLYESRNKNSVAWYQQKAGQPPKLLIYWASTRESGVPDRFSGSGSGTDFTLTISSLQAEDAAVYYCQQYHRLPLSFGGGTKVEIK

Variants are written as CDR1, CDR2 and CDR3 of the heavy chain (limits as in the source). Parent: GFTLNSYGIS, VIYSDGRRTFYGDSVK, GRAAGTFDS.
Affinities are written as log10 Kd with Kd in nM; a lower number is a better binder.
The mean shown is taken over the replicates in which the pair was detected.
"nd" means that the variant was in the library but no mating with the target was seen in that replicate; the authors take this as a sign of poor binding, and no number exists.
In this assay the parent's reference entry averaged 0.65; its copy inside this library read 4.11 (one replicate of three).
Three control strains display no target. For library AAYL49, 15% of the pairings with them gave a signal, with a median of 4.06 and one signal in twenty below 2.83, so weak values seen in few replicates may be background. The control count says in how many pairings with the empty strains this scFv gave a signal, with their mean in brackets.

CDR-H1,CDR-H2,CDR-H3,"log10 Kd, replicates",mean log10 Kd (nM),control signals
GFTLNSYGIS,VIYSDGRYTFWGDSIK,GRAAGTFDS,nd 3.80 5.24,4.52,8 of 9 (4.62)
GFTLNSYGPS,VIYSDGRRTFYTDSTK,GRAAGTFDS,nd nd 5.20,5.20,2 of 9 (3.62)
GFTLNSMGIS,VIYSDGRRTFYGDSVA,GRAAGTFCS,nd nd nd,nd,3 of 9 (4.20)
GFTLNSYGIS,VIYSDGRRTCNGDSVK,GRAAGTFDS,nd nd nd,nd,1 of 9 (3.90)
GFTLHSYGIS,VIYSDGRRTFNGDSFK,GRAAGTFDS,nd nd 4.28,4.28,0 of 9
GFTLNSYGIS,FIYSDGRCTFGGDSVK,GRAAGTFDS,5.15 nd nd,5.15,3 of 9 (2.95)
GFTLNSYGIS,VIYSDGRRTFYGDIVK,GLAAGTFWS,nd nd nd,nd,0 of 9
GFELNSYGIS,VIYSDGRRTFYGDSVK,GRAAGTEDI,nd nd nd,nd,1 of 9 (4.66)
GFRLMSYGWS,VIYSDGRRTFYGDSVK,GRAAGTFDS,nd nd nd,nd,1 of 9 (4.46)
GFTLNSYDIS,VIYSDTRRTFYGDSNK,GRAAGTFDS,nd nd nd,nd,0 of 9
GFTLNGYGIS,VIYSDGSRTFYGDSNK,GRAAGTFDS,nd nd 4.45,4.45,2 of 9 (4.04)
GFTLNSYGIS,VYYSAGRRTFYGDSVK,GRLAGTFDS,nd nd nd,nd,1 of 9 (2.86)
GFTLNSYGIS,VIYSDGRRTCYGDKVK,GRAAGCFDS,nd nd nd,nd,0 of 9
GFTLNSYGIS,VIYLDGRRTFYKDSVK,GRAAGTHDS,nd nd 6.06,6.06,3 of 9 (4.39)
GFTLNSYGIS,VIYSDGRRTFYGDSHK,GRAAGTFDS,nd 3.73 nd,3.73,0 of 9
GFTLNSYNIS,VIYSDGRRTFYGDSVK,GRAAGTFDS,nd nd nd,nd,0 of 9
GFTLNSYGIS,VIYSDGTRTFYGDSVK,GRASGTEDS,nd nd nd,nd,0 of 9
GFTLQIYGIS,VIYSDGRRDFYGDSVK,GRAAGTFDS,3.99 nd nd,3.99,1 of 9 (4.23)
GFTLNSPGIS,VIYSDCRRTFYGDSVK,GRAAGAFDS,nd nd nd,nd,1 of 9 (4.15)
EFTLNSYGIS,VIYSDGRRLFYGDSVK,GRAAGFFDS,nd 3.28 2.64,2.96,2 of 9 (5.38)
GFTLNSYMIS,VFYSDGRRTFYFDSVK,GRAAGTFDS,nd nd nd,nd,2 of 9 (3.25)
GFTLTSYGIS,VIYSDGRRTFYGDSVK,GRAEGTFDF,1.12 1.18 1.42,1.24,2 of 9 (4.25)
GFTLNLYGIS,VIYSDGRRTFYGDSVK,GRAAGTFDS,1.35 1.44 1.57,1.46,1 of 9 (3.41)
GFTLNAYGIS,VIYSDGRRTFYGMSVK,GRAAGTNDS,nd nd 1.88,1.88,0 of 9
GFTLNSYGIS,SIYSDGRRTFYMDSTK,GRAAGTFDS,nd nd nd,nd,1 of 9 (3.86)
GVTLNSYGIS,VIYSDGRRTFDMDSVK,GRAAGTFDS,nd nd nd,nd,2 of 9 (3.75)
GFTLNSYGNS,VIYSDKRRTFYGDSVK,GRACGTFDS,nd nd nd,nd,0 of 9
GFILNSVGIS,VIYSDGRRTFYGDSVK,GRAAGTFMS,4.99 3.47 nd,4.23,3 of 9 (3.88)
PFTYNSYGIS,VIYSDVRRTFYGDSVK,GRAAGTFDS,6.00 5.10 4.19,5.10,3 of 9 (5.07)
GFTLNSYGIS,VIVSDGRRTFYGDSVY,GRAAGTFCS,nd 3.07 6.15,4.61,2 of 9 (3.54)

For reference, 4 entries of the list once more:

CDR-H1	CDR-H2	CDR-H3	log10 Kd, replicates	mean log10 Kd (nM)	control signals
GFTLNSYGIS	VIYSDGRRTFYGDIVK	GLAAGTFWS	nd nd nd	nd	0 of 9
GFTLNSYDIS	VIYSDTRRTFYGDSNK	GRAAGTFDS	nd nd nd	nd	0 of 9
GFTLNSPGIS	VIYSDCRRTFYGDSVK	GRAAGAFDS	nd nd nd	nd	1 of 9 (4.15)
EFTLNSYGIS	VIYSDGRRLFYGDSVK	GRAAGFFDS	nd 3.28 2.64	2.96	2 of 9 (5.38)

From the AlphaSeq antibody data of Engelhart et al. 2022 (doi:10.1038/s41597-022-01779-4), copy in the FLAb collection.